PubChem BioAssay AID759 (NMMLSC, 2007)
The list shows a part of the results, in another mix than the full data. Some results for these compounds are left out of this collection, so the calls shown say nothing about other tests. The source made the active and inactive calls.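 How the source made its calls: active means GTP binding activity at least 20% away from the 100% baseline, either lowered as inhibitor or raised as activator; inconclusive means flagged as likely green fluorescent, judged across all proteins in the well; inactive means the rest.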

By UniProt entry, the sequences of proteins in these tests, tags left out.
UniProt P01112, whole entry: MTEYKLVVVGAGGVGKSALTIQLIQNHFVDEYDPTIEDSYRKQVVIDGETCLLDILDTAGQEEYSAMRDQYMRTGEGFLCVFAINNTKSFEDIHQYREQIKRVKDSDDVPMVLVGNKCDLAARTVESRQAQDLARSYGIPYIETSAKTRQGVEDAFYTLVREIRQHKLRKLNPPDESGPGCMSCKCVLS

The compounds below were run against GTPase HRas (Homo sapiens) (UniProt P01112) (assay: HRas wt fluorescent GTP binding changes, either direction – biochemical, wildtype, bead-based flow cytometry, multiplex, primary screen (AID 759;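 further: 0% = unlabeled GTP competition control and 100% = no-compound control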)). Conditions: GST-Ras wt beads, Bodipy-FL-GTP binding, at 10 µM, actives lie on both sides.
In the case of COc1cccc(C(=O)NCC2(N3CCCCC3)CCCCC2)c1, the GTP binding activity is reported as inactive: 94%.
With CN(C)c1cccc(C(=O)NCC2(N(C)C)CCCCC2)c1 the GTP binding activity was inactive: 102%.
For O=C(OC1CN2CCC1CC2)C(CO)(c1ccccc1)c1ccccc1 (centres undefined), the GTP binding activity was inactive: 97%.
In the case of CC(C)N1C(=O)CC2(CCN(CCOC(=O)C(O)(c3ccccc3)c3ccccc3)CC2)C1=O, the GTP binding activity is reported as inactive: 106%.
In the case of O=C(NCC1(N2CCCCC2)CCCCC1)c1cc([N+](=O)[O-])ccc1Cl, the GTP binding activity is reported as inactive: 92%.
CCN1CCCC(OC(=O)C2(O)c3ccccc3C=Cc3ccccc32)C1 (centres undefined) was tested, and the GTP binding activity was inactive: 99%.
C=CCN1CCN(CCOC(=O)C(O)(c2ccccc2)c2ccccc2)CC1 was tested, and the GTP binding activity was inactive: 97%.
CN(C)C1CCCC1OC(=O)C(O)(c1ccccc1)c1ccccc1 (centres undefined) was tested, and the GTP binding activity was inactive: 99%.
With Cc1ccccc1C(=O)NCC1(N2CCCCC2)CCCCC1 the GTP binding activity was inactive: 101%.
